Laboratory results as given in ChEMBL document CHEMBL3608270, “Advances in tetrahydropyrido[1,2-a]isoindolone (valmerins) series: Potent glycogen synthase kinase 3 and cyclin dependent kinase 5 inhibitors” (Eur J Med Chem, 2015).

Assay: Selectivity index, ratio of IC50 for human recombinant CDK5/p25 to porcine brain GSK3alpha/beta

Ratio IC50 | Compound
3.4 | O=C(Nc1cnccn1)Nc1cccc2c1C1CC3(CCN1C2=O)SCCS3 (centres undefined)
140 | COc1cc(NC(=O)Nc2cccc3c2[C@@H]2C[C@H](O)CCN2C3=O)nc2ccccc12 (relative stereo)
4 | Cc1cnc(NC(=O)Nc2cccc3c2C2CC4(CCN2C3=O)SCCS4)cn1 (centres undefined)
2.6 | O=C(Nc1cnccn1)Nc1cccc2c1[C@@H]1C[C@H](O)CCN1C2=O (relative stereo)
